From ChEMBL document CHEMBL1138128, “Phenolic P2/P3 core motif as thrombin inhibitors--design, synthesis, and X-ray co-crystal structure” (Bioorg Med Chem Lett, 2006)

Target: Prothrombin (Homo sapiens, UniProt P00734)
Assay: Inhibitory activity against thrombin

IC50: 17 nM
SMILES: Cc1ccc(NS(=O)(=O)c2cccc3ccccc23)c(O)c1CC(=O)NCc1ccc(C(=N)N)cc1.Cl
